Data published in PubChem BioAssay AID690 (Sanford-Burnham Center for Chemical Genomics, 2007).
The list shows a part of the results, in another mix than the full data. Potency and affinity values are given separately. The source made the active and inactive calls. The rule behind the calls is not given here.

The chains behind the UniProt entries cited, without tags or fusion partners. Where a name states a change or a piece, a line headed by the entry shows the natural chain unless it says otherwise.
UniProt P05187: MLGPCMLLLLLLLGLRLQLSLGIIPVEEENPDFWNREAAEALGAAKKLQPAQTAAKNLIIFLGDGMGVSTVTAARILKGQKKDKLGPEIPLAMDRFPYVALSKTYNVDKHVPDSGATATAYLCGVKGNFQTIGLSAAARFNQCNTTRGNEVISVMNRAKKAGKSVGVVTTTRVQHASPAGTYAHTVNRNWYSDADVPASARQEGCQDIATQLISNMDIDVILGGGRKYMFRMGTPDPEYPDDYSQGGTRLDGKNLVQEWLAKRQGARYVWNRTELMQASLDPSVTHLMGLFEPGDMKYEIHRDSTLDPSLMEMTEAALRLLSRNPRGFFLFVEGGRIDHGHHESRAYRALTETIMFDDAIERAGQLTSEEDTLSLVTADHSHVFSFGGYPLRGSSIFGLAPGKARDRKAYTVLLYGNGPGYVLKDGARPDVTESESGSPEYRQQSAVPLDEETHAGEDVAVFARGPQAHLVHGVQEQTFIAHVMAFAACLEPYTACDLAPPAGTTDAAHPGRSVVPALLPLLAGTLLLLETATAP

These compounds were tested against Alkaline phosphatase, placental type (Homo sapiens) (UniProt P05187) (assay: inhibition of human placental alkaline phosphatase – biochemical, luminescence, HTS (AID 690)). Conditions: purified PLAP, luminescent substrate; at 20 µM; stronger effect = higher value.

| Structure (SMILES) | inhibition |
| --- | --- |
| CCOP1(=S)c2c(C)nn(CCC#N)c2N=C(c2ccc(F)cc2)N1C (centres undefined) | inactive: -27% |
| O=[N+]([O-])c1ccc2c(c1)nnn2O | inactive: 7.8% |
| CCOP1(=S)c2c(C)nn(CCC#N)c2N=C(c2ccccc2F)N1C (centres undefined) | inactive: -10.6% |
| O=P(Nc1nccs1)(c1ccccc1)c1nc2ccccc2s1 (centres undefined) | inactive: -41.5% |
| Cc1cccc(OCC(=O)OC2CN3CCC2CC3)c1 (centres undefined) | inactive: 9.1% |
| O=P1(Nc2ccccn2)COc2ccccc2OC1 | inactive: -14.9% |
| Clc1n[nH]nc1-c1nn[nH][15n]1 | inactive: 6.7% |
| O=P1(Nc2ncccn2)COc2ccccc2OC1 | inactive: -27.6% |
| Cc1ccc(OCC(=O)OC2CN3CCC2CC3)cc1 (centres undefined) | inactive: -1% |
| O=P1(Nc2ccc(Br)cn2)COc2ccccc2OC1 | inactive: -11.5% |
| Cc1nn(-c2ccccc2)c2c1P(=O)(N1CCOCC1)N(C)C(c1ccccc1)=N2 (centres undefined) | inactive: -29.4% |
| COP1(=S)c2c(C)nn(CCC#N)c2N=C(c2ccc(F)cc2)N1C (centres undefined) | inactive: -36.1% |
| O=C(COc1ccccc1)OC1CN2CCC1CC2 (centres undefined) | inactive: 2.8% |
| O=C(OC1CN2CCC1CC2)C12CC3CC(CC(C3)C1)C2 (centres undefined) | inactive: -41.9% |
| CCN(CC)C(=S)SC(NC=O)C(Cl)(Cl)Cl (centres undefined) | inactive: 13% |
| CCOP(=O)(Nc1ccccc1)OCC | inactive: -12.6% |
| Oc1ccccc1CNc1ccccn1 | inactive: -3.7% |
| Cc1c2non([O-])c-2c(C)[n+](=O)[n+]1[O-] | inactive: 7.3% |
| CC(C)CC(=O)NC(Sc1ccc(Cl)cc1)C(Cl)(Cl)Cl (centres undefined) | inactive: 30.5% |
| CC1CCN(C(=O)Oc2c(Cl)cc(Cl)c3cccnc23)CC1 | inactive: -41.7% |
| CCc1nc2c(n1)c1c(non1O)c1c2no[n+]1[O-] | inactive: 1.4% |
| O=[N+]([O-])c1cccc2n[nH]nc12 | inactive: 6.4% |
| O=C(OC1CN2CCC1CC2)c1cccc(Cl)c1 (centres undefined) | inactive: -6.1% |
| O=P(Nc1nccs1)(c1ccccc1)c1ccccc1 | inactive: -16.2% |
| c1nnnn1CCn1cnnn1 | inactive: -0.9% |
| O=P1(Nc2nc3ccc(Cl)cc3s2)COc2ccccc2O1 (centres undefined) | inactive: 1% |
| CCC(=O)N1C2C3N(C(=O)CC)C1C1N(C(=O)CC)C(C(N1C(=O)CC)N3C(=O)CC)N2C(=O)CC | inactive: 29.2% |
| COC(=O)c1cc2c(s1)N=C(c1ccccc1)N(C)P2(=O)N1CCOCC1 (centres undefined) | inactive: -15.9% |
| CCOC(=O)NC(Sc1ccccc1)C(Cl)(Cl)Cl (centres undefined) | inactive: 3% |
